Here are results for one molecule from ChEMBL document CHEMBL1208792, “A novel series of [3.2.1] azabicyclic biaryl ethers as alpha3beta4 and alpha6/4beta4 nicotinic receptor agonists” (Bioorg Med Chem Lett, 2010).

Protein sequences, listed by entry. Tags and fused reporters are not part of them.
UniProt P36544, whole entry: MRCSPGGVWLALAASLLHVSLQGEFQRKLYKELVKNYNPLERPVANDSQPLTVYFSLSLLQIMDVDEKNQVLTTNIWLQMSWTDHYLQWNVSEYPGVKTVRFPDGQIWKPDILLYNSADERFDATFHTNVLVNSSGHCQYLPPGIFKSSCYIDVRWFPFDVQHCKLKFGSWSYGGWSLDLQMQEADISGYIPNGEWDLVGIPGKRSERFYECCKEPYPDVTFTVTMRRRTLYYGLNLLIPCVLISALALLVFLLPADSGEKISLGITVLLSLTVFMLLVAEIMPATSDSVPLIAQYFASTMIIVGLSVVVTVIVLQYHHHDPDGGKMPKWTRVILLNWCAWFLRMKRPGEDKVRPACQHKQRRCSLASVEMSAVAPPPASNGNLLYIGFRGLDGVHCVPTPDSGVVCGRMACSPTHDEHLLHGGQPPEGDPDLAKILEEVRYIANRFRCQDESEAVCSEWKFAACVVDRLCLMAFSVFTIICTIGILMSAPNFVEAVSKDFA

This test addresses Neuronal acetylcholine receptor subunit alpha-7 (Homo sapiens, UniProt P36544). Put plainly: Displacement of [3H]epibatidine from alpha7 nicotinic receptor expressed in human HEK293 cells. The class given is cell-based.

The molecule `c1cnc2cc3c(cc2n1)[C@@H]1CNC[C@H]3C1` [VARENICLINE] returned a Ki of 125 nM.
